Laboratory results: BindingDB's records for PubMed 7932177 (Memorial Sloan-Kettering Cancer Center, 1994)

Amino acid sequences for entries named in this document (tags omitted). A change or cut given only in a name is not applied to a line headed by its entry.
UniProt P41143, whole entry: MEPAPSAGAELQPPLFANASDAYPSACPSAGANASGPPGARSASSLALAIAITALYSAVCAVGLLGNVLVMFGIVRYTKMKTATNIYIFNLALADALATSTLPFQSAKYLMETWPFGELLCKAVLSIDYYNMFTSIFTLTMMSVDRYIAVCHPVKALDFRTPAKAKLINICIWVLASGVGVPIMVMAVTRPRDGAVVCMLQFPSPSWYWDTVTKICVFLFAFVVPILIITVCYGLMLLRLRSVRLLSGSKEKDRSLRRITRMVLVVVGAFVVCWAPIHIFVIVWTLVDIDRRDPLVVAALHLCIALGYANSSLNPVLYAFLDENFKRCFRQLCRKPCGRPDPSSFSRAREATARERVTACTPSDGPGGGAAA
UniProt P35372, whole entry: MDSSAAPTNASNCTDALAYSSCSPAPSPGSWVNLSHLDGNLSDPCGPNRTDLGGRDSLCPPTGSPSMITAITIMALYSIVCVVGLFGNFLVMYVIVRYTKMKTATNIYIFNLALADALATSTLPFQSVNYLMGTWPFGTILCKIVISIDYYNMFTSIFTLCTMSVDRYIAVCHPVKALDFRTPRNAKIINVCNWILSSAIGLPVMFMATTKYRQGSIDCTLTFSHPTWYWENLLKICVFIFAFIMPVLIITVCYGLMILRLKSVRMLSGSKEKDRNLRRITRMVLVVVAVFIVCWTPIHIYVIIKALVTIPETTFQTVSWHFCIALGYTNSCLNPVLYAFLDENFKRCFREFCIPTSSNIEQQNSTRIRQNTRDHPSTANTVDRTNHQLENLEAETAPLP
UniProt P41145: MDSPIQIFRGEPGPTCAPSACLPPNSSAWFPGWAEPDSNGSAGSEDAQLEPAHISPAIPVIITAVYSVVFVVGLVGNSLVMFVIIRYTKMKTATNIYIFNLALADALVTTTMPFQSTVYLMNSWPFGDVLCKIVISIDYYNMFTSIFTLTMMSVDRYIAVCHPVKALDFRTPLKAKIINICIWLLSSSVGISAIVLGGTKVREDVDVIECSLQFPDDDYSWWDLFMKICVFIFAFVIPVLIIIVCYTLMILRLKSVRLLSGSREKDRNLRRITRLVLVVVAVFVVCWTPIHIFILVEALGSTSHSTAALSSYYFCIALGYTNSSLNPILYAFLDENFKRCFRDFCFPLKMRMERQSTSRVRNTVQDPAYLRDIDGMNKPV

Assays:
[1] = biological target: Delta-type opioid receptor (Homo sapiens, UniProt P41143)
Mu-type opioid receptor = Mu-type opioid receptor (Homo sapiens, UniProt P35372)
[2] = biological target: Kappa-type opioid receptor (Homo sapiens, UniProt P41145)

| Structure (SMILES) | Ki [1] [µM] | Ki (Mu-type opioid receptor) [µM] | Ki [2] [µM] |
| --- | --- | --- | --- |
| CC(C)[C@H](NC(=O)[C@H](CC(=O)O)NC(=O)[C@H](Cc1ccccc1)NC(=O)[C@@H](C)NC(=O)[C@@H](N)Cc1ccc(O)cc1)C(=O)N[C@H](C(=O)NCC(N)=O)C(C)C [Deltorphin I] | 0.00049 | 0.0575 | 0.414 |
| Oc1ccc2c3c1OC1c4[nH]c5ccccc5c4CC4(O)[C@H](C2)N(CC2CC2)CCC314 (stereo partly drawn) [NALTRINDOLE] |  | 0.0229 | 0.0256 |
| CC(C)[C@H](NC(=O)[C@H](CCC(=O)O)NC(=O)[C@H](Cc1ccccc1)NC(=O)[C@@H](C)NC(=O)[C@@H](N)Cc1ccc(O)cc1)C(=O)N[C@H](C(=O)NCC(N)=O)C(C)C [Tyr-D-Ala-Phe-Glu-Val-Val-GlyNH2] |  | 0.23 |  |
| CC(C)C[C@@H](NC(=O)[C@H](Cc1ccccc1)NC(=O)CNC(=O)[C@@H](C)NC(=O)[C@@H](N)Cc1ccc(O)cc1)C(=O)O [[D-Ala2-D-Leu5]enkephalin] |  | 0.00285 | 0.0102 |
